## Measured affinities in a library of Ab-14 light chain variants

From the AlphaSeq antibody data of Li et al. 2023 (doi:10.1038/s41467-023-39022-2), copy in the FLAb collection.

The target is the same throughout: PDVDLGDISGINAS, from the HR2 region of SARS-CoV-2 spike.

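This is the validation round: designs drawn from the data on random variants, tested in the same kind of assay. Their group label is 14L_En_HC (En: ensemble of fine-tuned language models; HC: hill climbing; a sequence that several methods proposed may carry one label only). Affinity was read by AlphaSeq, a pooled yeast mating assay with surface-displayed partners. Binding brings cells together so that they mate, and sequencing counts the barcode pairs among the diploids. Scores were corrected for input abundance and mapped to Kd with protein pairs of known affinity run in the same pool. Mating was done six times.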

Each scFv is VH, three GGGGS repeats, VL, as in the parent Ab-14, and differs from it in the CDRs of the light chain only.
VH: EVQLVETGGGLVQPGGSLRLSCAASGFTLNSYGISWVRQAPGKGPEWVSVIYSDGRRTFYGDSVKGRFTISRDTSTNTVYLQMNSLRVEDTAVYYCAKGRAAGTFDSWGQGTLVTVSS
VL: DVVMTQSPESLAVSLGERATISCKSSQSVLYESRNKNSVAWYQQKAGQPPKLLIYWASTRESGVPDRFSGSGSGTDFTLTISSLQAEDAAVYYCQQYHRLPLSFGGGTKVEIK

Each variant is given by its three light chain CDRs, as the data file delimits them; those of the parent are KSSQSVLYESRNKNSVA, WASTRES, QQYHRLPLS. Values are log10 of the apparent Kd in nM; lower means stronger binding. "n.d." means that the variant was in the library but no mating with the target was seen in that replicate; the authors take this as a sign of poor binding, and no number exists. Values of this round are not directly comparable with the first-round values of the same sequences.

CDR-L1,CDR-L2,CDR-L3,"log10 Kd, replicates",empty controls
KIYMMTGFQYRNADSIA,DNSTRGR,QQYHRLPLS,1.86 / 2.19 / 1.73 / 1.72 / 1.51 / 2.18,1 of 18 (3.04)
KISMMYRFEQTASNNIA,EMTTRAE,QFYHRLPLS,0.88 / 1.41 / 1.09 / 1.25 / 1.37 / 2.03,0 of 18
KLRQVTGYESYNKNSVA,QTSTRAS,QDYHRLPLS,1.81 / 1.93 / 1.25 / 0.80 / 1.48 / 1.13,1 of 18 (2.65)
SLGTSTLEESRNKNSVA,EMSLRES,QSYNRLPLS,0.67 / 0.43 / 0.30 / 0.44 / 0.18 / 0.54,1 of 18 (3.31)
KLSILHQVESINKSNVA,EMVTRES,QQYHRLPLS,0.86 / 0.45 / 0.56 / 0.70 / 0.79 / 0.56,3 of 18 (2.74)
MISQLFMYGSRQYNSVA,QASTREK,QQYDRLPLI,0.89 / 0.63 / 0.64 / 0.53 / 0.64 / 0.91,1 of 18 (3.16)
KLMQSTGYESRNKDSIA,DNSTRGR,QQYHRLPLS,3.51 / 2.62 / 2.34 / 3.76 / 2.67 / 2.91,1 of 18 (4.62)
KLSMMMRFLTEEKNSIA,ELVTRMS,QQYHRLPLS,n.d. / n.d. / n.d. / n.d. / 0.97 / n.d.,0 of 18
KLSITGLHESIDKKSIA,ERSTREN,QQYHRLPLS,0.22 / 0.45 / 0.31 / 0.06 / 0.13 / 0.48,0 of 18
KLYFNVGTMAHNKDSIA,DMERRED,QQYHRLPLS,0.26 / 0.14 / -0.03 / 0.05 / 0.08 / 0.38,3 of 18 (3.68)
KISQMVNFESTHVNAVA,QMSTREE,QQYFRLPLS,1.11 / 1.05 / 0.94 / 1.07 / 0.60 / 0.94,1 of 18 (1.90)
KIGQQVTYESTTKNAIA,QMTTREE,QQYHRLPLS,0.44 / 0.42 / 0.54 / 0.30 / 0.48 / 0.71,1 of 18 (1.79)
SLSMSMAFLSRNKNSVA,ENSTRES,QQYHRLPLM,1.37 / 1.78 / 0.78 / 1.98 / 0.86 / 1.77,0 of 18
NVGQSMDGESRNHNSVA,HQSTRED,QHYHRLPLS,1.16 / 1.21 / 1.43 / 1.19 / 1.24 / 1.35,0 of 18
HISQMWMLESKNKNNVA,EESTRND,QSYFRLPLS,0.10 / -0.04 / -0.01 / -0.15 / 0.20 / 0.27,0 of 18
TISQSAQQESHNKNSVA,DLNVRGG,QQYDRLPLS,0.45 / 0.42 / 0.47 / 0.32 / 0.44 / 0.65,2 of 18 (2.40)
KIGGVTNGISRAKNSVA,EQSTRED,QQYNRLPLS,0.92 / 0.57 / 0.71 / 0.67 / 0.67 / 0.74,1 of 18 (2.92)
TLSQMWGMESRHKNNVA,QESTREK,QQYFRLPIS,0.52 / 0.66 / 0.66 / 0.57 / 0.87 / 0.02,0 of 18
HISPSFMVESKLKNSVA,QTETRES,QQYDRLPLS,0.53 / 0.61 / 0.06 / -0.02 / 0.10 / 0.20,1 of 18 (2.38)
KIGQITTYHSQVGNSIA,QTSTREE,QQYHRLPLS,0.95 / 0.77 / 0.83 / 0.41 / 0.60 / 1.06,3 of 18 (2.71)
KLSQYVGGESRNKSSLA,DNSTRES,QQYYRLPLS,0.79 / 0.95 / 0.51 / 0.69 / 0.98 / 0.82,1 of 18 (4.41)
ILYDSALTLSRNKNSVA,DNSTRES,QQYDRLPLS,n.d. / n.d. / n.d. / n.d. / n.d. / n.d.,0 of 18
KLSQSTSYESLNKNSVA,ELTTRGG,QQYNRLPLS,n.d. / n.d. / 2.02 / 2.17 / n.d. / 1.45,1 of 18 (2.03)
TIGQMFNGESRIRNSVA,QASTRCE,QSYDRLPLA,0.14 / 0.14 / 0.06 / 0.00 / -0.35 / 0.22,1 of 18 (2.14)
KISQVAMMTGKLKNSVA,NAYTRVQ,QQYHRLPLS,0.81 / 0.38 / 0.71 / 0.92 / 1.16 / 1.00,0 of 18
KLGGVTSYEMQNVNSVA,QMTTRES,QQYHRLPLS,0.18 / -0.03 / -0.21 / -0.15 / -0.39 / -0.05,1 of 18 (2.38)
IISQSVLGGYHNKNSVA,QTSERGQ,QMYDRLPLS,2.55 / n.d. / 1.77 / 2.82 / 3.23 / n.d.,0 of 18
KLAGVTEYEMRNKNSVA,QMTTRES,QQYHRLPLS,1.06 / 0.90 / 1.02 / 0.90 / 0.59 / 0.75,1 of 18 (3.42)
HISMMVGTKGYNKNSVA,QAETRVD,QQYHRLPLS,0.32 / 0.62 / 0.81 / 0.46 / 0.56 / 0.59,1 of 18 (2.44)
KLMQSVQYGSRALNSVA,QMETRED,QQYHRLPLS,0.48 / 0.66 / 0.73 / 0.85 / 0.50 / 0.22,1 of 18 (1.19)
MISDLTMYGSRNANSVA,DLSTRGS,QQYHRLPLS,0.18 / 0.18 / -0.11 / 0.12 / -0.17 / 0.18,0 of 18
TLGTSTLEESRNKNSVA,EMSLREE,QSYNRLPLS,1.79 / 2.65 / 1.84 / 1.43 / 1.14 / 1.62,1 of 18 (2.74)
TLSDLMYMESRNYNSVA,DLVERES,QQYHRLPLS,0.48 / 1.11 / 0.39 / 1.58 / 0.87 / 1.12,2 of 18 (2.68)
KLSQFYRMEQRNKNSVA,DNSTRES,QDYDRLPLS,n.d. / n.d. / n.d. / n.d. / 2.04 / n.d.,2 of 18 (3.38)
KLSQVTNSEHKVKNSIA,EMVTREK,QQYDRLPLS,n.d. / 2.65 / n.d. / n.d. / n.d. / n.d.,0 of 18
KLSATYRYESQNKNSIA,EMTTRAS,QCYHRLPLS,1.14 / 1.42 / 2.14 / 1.64 / 2.27 / 2.04,1 of 18 (2.52)
KLGQSTAMTSRMKNNVA,DLNMRER,QQYHRLPLS,0.56 / 0.58 / 0.52 / 0.67 / 0.46 / 0.83,0 of 18
HVSESVFAQSKMRNSVA,ENSTRES,QQYDRLPLS,1.13 / 0.71 / 0.79 / 0.97 / 1.09 / 0.97,1 of 18 (3.26)
QISMSVGLTSFNKNSVA,ENSTREN,QQYDRLPLS,2.18 / 2.18 / n.d. / n.d. / 2.69 / 4.07,1 of 18 (1.61)
HISPSFMVESKLKNSVA,QTETRVS,QQYDRLPLS,0.25 / 0.16 / 0.28 / -0.02 / -0.05 / 0.30,2 of 18 (3.83)
TIGPMLMTESRNKNSVA,GMQTRER,QQYNRLPLS,0.45 / 0.26 / 0.71 / 0.75 / 0.25 / 0.24,0 of 18
KIGQQVTYESTNHNAIA,QMTTRES,QQYHRLPLS,0.34 / 0.59 / 0.34 / 0.43 / 0.53 / 0.30,0 of 18
TISTSAQQESHNKNSVA,DLNVRGS,QQYDRLPLS,0.92 / 1.09 / 0.70 / 0.65 / 0.72 / 0.70,1 of 18 (2.29)
MLGMTVMQGMVSRNNVA,QEETRAE,QQYHHLPLS,1.33 / 0.25 / 1.07 / 1.46 / 0.98 / 0.62,1 of 18 (2.65)
MLSDLVKMGSRNHNSVA,DNSTRGS,QQYDRLPLS,n.d. / n.d. / n.d. / 4.63 / n.d. / n.d.,1 of 18 (2.34)
KLYMATGYESRNADSIA,DNSTRGR,QQYHRLPLS,1.02 / 0.98 / 0.96 / 0.94 / 0.73 / 1.18,4 of 18 (2.60)
KVSQSVMMLSRNKNSVA,DNSTSGS,QQYDRLPLS,n.d. / n.d. / n.d. / 3.80 / n.d. / 2.15,2 of 18 (2.26)
TLTQVTMVESYAKNSVA,QASTREE,QDYHRLPLS,1.26 / 0.97 / 0.77 / 0.71 / 1.15 / 1.24,0 of 18
ILSQSVLMGMHTKNAVA,QATMRFN,QQYHRLPFM,0.31 / 0.15 / 0.21 / 0.24 / 0.36 / 0.01,1 of 18 (1.70)
MLSDLVKMGARNTNSVA,DNSTRGS,QQYDRLPLS,1.67 / 1.92 / 2.26 / 1.56 / 1.90 / 3.10,1 of 18 (2.48)
KISQMVNFESGHINAVA,QMSTREE,QQYFRLPLS,n.d. / 1.06 / 1.01 / 1.16 / 0.75 / 0.28,0 of 18
HISQMHFLESKNKNNVA,EESTRED,QSYFRLPLS,0.21 / 0.09 / -0.08 / -0.13 / -0.11 / 0.12,1 of 18 (2.12)

Extract of 7 entries:

CDR-L1,CDR-L2,CDR-L3,"log10 Kd, replicates",empty controls
KLGGVTSYEMQNVNSVA,QMTTRES,QQYHRLPLS,0.18 / -0.03 / -0.21 / -0.15 / -0.39 / -0.05,1 of 18 (2.38)
QISMSVGLTSFNKNSVA,ENSTREN,QQYDRLPLS,2.18 / 2.18 / n.d. / n.d. / 2.69 / 4.07,1 of 18 (1.61)
KLGQSTAMTSRMKNNVA,DLNMRER,QQYHRLPLS,0.56 / 0.58 / 0.52 / 0.67 / 0.46 / 0.83,0 of 18
SLGTSTLEESRNKNSVA,EMSLRES,QSYNRLPLS,0.67 / 0.43 / 0.30 / 0.44 / 0.18 / 0.54,1 of 18 (3.31)
KLSMMMRFLTEEKNSIA,ELVTRMS,QQYHRLPLS,n.d. / n.d. / n.d. / n.d. / 0.97 / n.d.,0 of 18
KLSQYVGGESRNKSSLA,DNSTRES,QQYYRLPLS,0.79 / 0.95 / 0.51 / 0.69 / 0.98 / 0.82,1 of 18 (4.41)
KLMQSVQYGSRALNSVA,QMETRED,QQYHRLPLS,0.48 / 0.66 / 0.73 / 0.85 / 0.50 / 0.22,1 of 18 (1.19)

In the paper, a design with two or fewer of six values counts as a poor binder. Of ten entries with the parent sequence, four were seen in most replicates (averages 0.34 to 2.37), three in one and three in none, so single entries are noisy. As a blank, each scFv also met three strains without target: over all light chain designs, 4% of these pairings were detected, typically at 2.64 and seldom below 1.59. The control count says in how many pairings with the empty strains this scFv gave a signal, with their mean in brackets.